Values of other authors as cited in publication PMC3590912 (Journal of medicinal chemistry, 2012).

Biological target: T1, mouse UT-B (Mus musculus, UniProt Q8VHL0)
T1 sequence (Q8VHL0 1-384): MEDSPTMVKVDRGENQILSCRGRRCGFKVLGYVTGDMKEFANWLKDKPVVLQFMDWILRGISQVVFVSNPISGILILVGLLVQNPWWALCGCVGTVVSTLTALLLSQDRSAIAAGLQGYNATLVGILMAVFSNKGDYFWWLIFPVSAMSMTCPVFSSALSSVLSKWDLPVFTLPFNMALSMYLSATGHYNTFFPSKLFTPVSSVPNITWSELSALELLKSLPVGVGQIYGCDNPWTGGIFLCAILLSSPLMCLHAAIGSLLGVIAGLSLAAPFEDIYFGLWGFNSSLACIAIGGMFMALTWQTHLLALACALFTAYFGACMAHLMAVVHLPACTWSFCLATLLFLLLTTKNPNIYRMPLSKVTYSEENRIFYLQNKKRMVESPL
Details: cited from earlier work

Structure (SMILES): CCc1ccc(S(=O)(=O)c2nnn3c2nc(NCc2cccs2)c2sccc23)cc1 [compound 1]
- selectivity for UT-B over UT-A isoforms: highly selective for UT-B over UT-A isoforms
